Columns and labels:
[1] = system: rat under pentobarbital anesthesia; assay: Test Example 9: effect on blood pressure and heart rate of rat under pentobarbital anesthesia; assay type: in vivo; details: 3 mg/kg intravenous, male SD rat, average value ± standard error of largest change
[2] = biological target: T1, human β3 adrenergic receptor (Homo sapiens, UniProt P13945); assay: Test Example 1-A: human β3 adrenergic receptor agonist activity (cAMP EIA, transfected CHO cells, 24-well); assay type: cell-based; details: Table 1; maximum response to isoproterenol taken as 100%
[3] = biological target: T1, human β3 adrenergic receptor; assay: Test Example 1-B: human β3 adrenergic receptor agonist activity (cAMP-Screen kit, transfected CHO cells, 96-well); assay type: cell-based; details: read-out: β3 receptor EC50, Table 2
[4] = biological target: human α1A adrenergic receptor (Homo sapiens, UniProt P35348); assay: Test Example 4: human α1A adrenergic receptor agonist activity (Ca flux, Fura-2, transfected HEK293 cells); assay type: cell-based; details: maximum response to norepinephrine taken as 100%
[5] = biological target: T2, human β1 adrenergic receptor (Homo sapiens, UniProt P08588); assay: Test Example 2-B: human β1 adrenergic receptor agonist activity (method of Test Example 1-B); assay type: cell-based; details: Table 2
[6] = biological target: T2, human β1 adrenergic receptor; assay: Test Example 2-A: human β1 adrenergic receptor agonist activity (method of Test Example 1-A); assay type: cell-based; details: Table 1
[7] = biological target: human α1D adrenergic receptor (Homo sapiens, UniProt P25100); assay: Test Example 6: human α1D adrenergic receptor agonist activity (SRE-luciferase, HEK293 cells); assay type: cell-based; details: phenylephrine as positive control
Description: Measurement of Human α1D Adrenergic Receptor Agonist Activity
(§1) The measurement of the human α1D adrenergic receptor agonist activity is carried out using HEK293 cells transiently co-transfected with pcDNA3.1 (manufactured by Invitrogen, Inc.) to which human α1D gene has been inserted, and with a luciferase gene-expressing vector, pSRE-Luc. plasmid (manufactured by Stratagene Corp.). These cells are seeded onto a 96-well plate at a concentration of 40,000 cells/well, and are cultured overnight in DMEM medium containing 2% fetal bovine serum, under the conditions of 37° C. and 5% CO2. A test compound is dissolved in DMSO and then is diluted with the medium, and this dilution is added to the cells to react for several hours. […]. After 30 minutes, the luminescence value is measured. Maximum response to phenylephrine as a positive control is taken as 100%, and the maximum response ratio of each test compound is calculated as the Intrinsic Activity [I.A. (%)].

By UniProt entry, the sequences of proteins in these tests, tags left out.
UniProt P13945, whole entry: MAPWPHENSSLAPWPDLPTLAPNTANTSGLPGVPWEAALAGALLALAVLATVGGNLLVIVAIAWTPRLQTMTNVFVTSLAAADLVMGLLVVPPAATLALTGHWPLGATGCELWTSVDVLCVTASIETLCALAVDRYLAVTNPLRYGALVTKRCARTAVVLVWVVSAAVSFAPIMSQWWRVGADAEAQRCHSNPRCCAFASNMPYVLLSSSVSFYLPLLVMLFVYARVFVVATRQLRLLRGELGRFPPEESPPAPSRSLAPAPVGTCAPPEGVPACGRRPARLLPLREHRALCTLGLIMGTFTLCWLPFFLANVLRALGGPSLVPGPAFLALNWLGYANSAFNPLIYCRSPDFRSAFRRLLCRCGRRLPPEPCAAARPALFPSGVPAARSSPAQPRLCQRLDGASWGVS
UniProt P35348, whole entry: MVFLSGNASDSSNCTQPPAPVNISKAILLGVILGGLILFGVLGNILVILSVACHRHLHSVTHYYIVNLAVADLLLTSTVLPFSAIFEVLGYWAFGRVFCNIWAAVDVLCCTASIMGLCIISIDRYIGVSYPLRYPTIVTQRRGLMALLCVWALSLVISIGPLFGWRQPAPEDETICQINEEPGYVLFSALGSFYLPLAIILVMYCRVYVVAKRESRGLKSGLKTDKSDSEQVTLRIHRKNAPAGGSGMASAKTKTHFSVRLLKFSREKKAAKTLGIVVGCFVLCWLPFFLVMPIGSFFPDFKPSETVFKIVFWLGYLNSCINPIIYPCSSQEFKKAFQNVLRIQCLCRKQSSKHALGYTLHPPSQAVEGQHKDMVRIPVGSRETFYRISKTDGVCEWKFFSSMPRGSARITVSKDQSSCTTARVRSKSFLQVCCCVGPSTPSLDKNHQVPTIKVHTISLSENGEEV
UniProt P08588, whole entry: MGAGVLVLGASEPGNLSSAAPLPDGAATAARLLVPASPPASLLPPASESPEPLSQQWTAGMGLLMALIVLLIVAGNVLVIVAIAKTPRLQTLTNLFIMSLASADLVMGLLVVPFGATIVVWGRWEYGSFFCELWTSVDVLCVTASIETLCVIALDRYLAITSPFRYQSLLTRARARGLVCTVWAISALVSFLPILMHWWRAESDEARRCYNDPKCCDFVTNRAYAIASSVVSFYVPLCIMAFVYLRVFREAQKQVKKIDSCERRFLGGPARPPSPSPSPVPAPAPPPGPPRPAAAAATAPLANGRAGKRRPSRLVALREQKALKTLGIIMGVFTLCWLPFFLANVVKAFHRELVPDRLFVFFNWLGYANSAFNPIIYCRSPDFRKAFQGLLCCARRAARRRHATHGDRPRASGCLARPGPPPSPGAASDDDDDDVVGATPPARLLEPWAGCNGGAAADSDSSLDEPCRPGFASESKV
UniProt P25100, whole entry: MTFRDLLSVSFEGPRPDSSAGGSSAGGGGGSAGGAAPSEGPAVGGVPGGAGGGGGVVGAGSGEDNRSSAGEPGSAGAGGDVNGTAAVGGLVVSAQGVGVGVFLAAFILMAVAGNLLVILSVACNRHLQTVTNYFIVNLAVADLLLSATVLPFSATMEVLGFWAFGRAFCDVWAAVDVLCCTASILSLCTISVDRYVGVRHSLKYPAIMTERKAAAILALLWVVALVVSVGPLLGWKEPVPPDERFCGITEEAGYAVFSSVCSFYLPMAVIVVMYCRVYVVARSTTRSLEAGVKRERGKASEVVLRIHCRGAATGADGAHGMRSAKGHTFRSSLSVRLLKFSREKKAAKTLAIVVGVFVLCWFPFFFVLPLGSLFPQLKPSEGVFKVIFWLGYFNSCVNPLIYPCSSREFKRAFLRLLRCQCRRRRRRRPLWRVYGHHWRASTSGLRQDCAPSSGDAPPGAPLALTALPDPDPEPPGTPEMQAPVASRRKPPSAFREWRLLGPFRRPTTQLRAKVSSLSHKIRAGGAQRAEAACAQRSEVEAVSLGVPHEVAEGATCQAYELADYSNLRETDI
UniProt P35368, whole entry: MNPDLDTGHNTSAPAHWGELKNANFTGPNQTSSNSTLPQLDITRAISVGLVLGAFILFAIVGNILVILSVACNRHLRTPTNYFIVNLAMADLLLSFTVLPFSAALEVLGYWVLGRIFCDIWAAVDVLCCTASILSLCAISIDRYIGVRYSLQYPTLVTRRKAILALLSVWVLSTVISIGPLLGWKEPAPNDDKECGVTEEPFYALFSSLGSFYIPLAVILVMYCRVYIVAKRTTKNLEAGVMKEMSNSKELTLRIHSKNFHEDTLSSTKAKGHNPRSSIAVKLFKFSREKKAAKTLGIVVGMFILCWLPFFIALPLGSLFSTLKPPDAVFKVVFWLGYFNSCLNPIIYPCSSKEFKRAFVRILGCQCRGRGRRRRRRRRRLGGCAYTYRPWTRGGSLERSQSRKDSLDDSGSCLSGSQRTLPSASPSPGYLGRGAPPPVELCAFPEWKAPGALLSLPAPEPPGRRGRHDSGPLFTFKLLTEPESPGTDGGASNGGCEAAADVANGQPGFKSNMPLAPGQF

[8] = biological target: human α1B adrenergic receptor (Homo sapiens, UniProt P35368); assay: Test Example 5: human α1B adrenergic receptor agonist activity (SRE-luciferase, HEK293 cells); assay type: cell-based; details: phenylephrine as positive control
Description: Measurement of Human α1B Adrenergic Receptor Agonist Activity
as §1, with “α1B” for “α1D”, “inserted” for “inserted,”, “and” for “and with”

SMILES: Cc1n[nH]c2cc(OCCNC[C@H](O)c3ccc(Cl)c(NS(C)(=O)=O)c3)ccc12
- increase in MBP (%) [1]: 12.6 ± 4.1%

SMILES: COc1n[nH]c2cc(OCCNC[C@H](O)c3cccc(NS(C)(=O)=O)c3)ccc12
- β3 receptor I.A. [2]: 64%
- EC50 [3]: 40 nM
- increase in MBP (%) [1]: 12.8 ± 4.4%
- α1A receptor I.A. ([4]; Table 1): 60%
- α1A receptor I.A. ([4]; Table 2): 60%
- β1 receptor EC50 [5]: a)
- β1 receptor EC50 [6]: a)
- α1D agonist activity [7]: did not have α1D agonist activity
- α1B agonist activity [8]: did not have α1B agonist activity

From US8008506B2, “Indazole compounds” (priority 2008, dated 2011)
